Hits are enriched below; roughly 1.7% of the tested compounds scored in any of these assays.
PTHR1 agonist: agonists of human PTHR1 parathyroid hormone receptor | Q03431 | HEK293 GP2 PTHR1 cells, GloSensor cAMP luminescence, 1 h | Potency, µM (top dose mostly 115 µM), usual class: activators | hit rate 0.075% among 410,000; further: nearly all actives have a fitted effect of over 55% in size
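HEK-293-derived GP2 cells expressing PTHR1 and a GloSensor cAMP reporter, 3,000/well, plated overnight, given luciferin plus IBMX (each 0.5 mM as added) for 1 h at 37 °C, then compound for 1 h at 37 °C. Luminescence was read after 15 min at room temperature.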
miR-21 reporter: miR-21 reporter, rising signal | HeLa miR-21 FLuc reporter, luciferase, 48 h | Potency, µM (highest dose often 38.3 µM) | 340,000 tested, under 10 active | AID 2288; active = well fitted rising curve with a large enough effect; inconclusive = small, poorly fitted or top-dose-only effect; inactive = no such curve, though single readings can be large or run the other way;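 further: miR-21 action dims this reporter so a rising signal means less miR-21 action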
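HeLa cells endogenously expressing miR-21, stably carrying CMV-driven firefly luciferase with a downstream miR-21 binding site, 2000 cells/well. Titrations up to approximately 40 uM, 48 hours; luciferase luminescence read.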
GLP1R cytotox: cytotoxicity in counter-screen for GLP-1R inverse agonists; HEK293 cAMP-luciferase reporter cells, luminescence, 24 h; Potency, µM (highest dose often 38.3 µM), most hits filed as inhibitors; hit rate 0.13% among 410,000; AID 624418;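 further: loss of luciferase light is scored as toxicity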
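Quantitative HTS format, 1536 wells, 200 cells/uL seeded. Compounds: 23 nL, 24 h, 37 °C. Detection: luciferase reagent, luminescence at 12 min RT; decreased signal taken as cytotoxic.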
Pin1 inh: blocks the human prolyl isomerase Pin1 | hit rate 0.009% among 390,000 | Q13526 | Potency, µM (series often up to 115 µM), actives largely listed as inhibitors | Pin1 FP peptide displacement, HiFluor488, 10 min; active means well fitted inhibition curve with a large enough effect in the polarisation, with a control signal flat, not every such curve was filed as active; inconclusive means small, poorly fitted or top-dose-only effect, or effect the other way, or a change in a side signal; inactive means no such curve, though single readings can be large or run the other way; the % refers to the polarisation
GLP-1R agonist: agonists of human GLP-1 receptor | P43220 | HEK293 GLP-1R CRE-luciferase, luminescence, 4-6 h; cells express a hypersensitive GLP-1R form | Potency, µM (doses to about 45.6 µM), actives largely listed as activators | hit rate 0.007% among 380,000 | AID 624172
GLP1R inv ag: inverse agonists of human GLP-1 receptor; HEK293 GLP-1R CRE-luciferase, luminescence, 24 h; GLP-1R form is constitutively active; hit rate 1.6% among 410,000; P43220; Potency, µM (top dose mostly 38.3 µM), usual class: inhibitors; AID 624417; further: nearly all actives have a fitted effect of over 55% in size
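Cells are plated, allowed 12 hours at 37 deg C, then treated with compounds for 24 hr before luciferase detection reagent is added and luminescence is read after 12 min at room temperature. The HEK293 line carries constitutively active GLP-1R with a cAMP-responsive reporter.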
Of the large screens only hits and unclear results are named; the others gave an inactive call. Unless noted, the call rests on the fitted dose curve; in most records, active means well fitted curve in the direction sought with a large enough effect; inconclusive means small, poorly fitted or top-dose-only effect, or another doubt; inactive means no such curve, though single readings can be large; an effect the other way counts as inactive or inconclusive.

c1ccc2c(-c3cncc4ccccc34)cncc2c1	GLP1R inv ag 2µM (no result: miR-21 reporter)
c1ccc2c(c1)-c1cccc3cncc-2c13	none (no result: miR-21 reporter)
COc1ccc(Oc2c(C=O)c3ccccc3n2C)cc1	GLP1R inv ag 10µM
Cc1ccc(Oc2c(C=O)c3ccccc3n2C)cc1	GLP1R inv ag 5µM
COc1ccc(C2=Nc3ccccc3N(C(=O)c3ccc(C(F)(F)F)cc3)C2C(=O)NCc2ccccc2)cc1 (stereo not given)	GLP1R inv ag 6.3µM (no result: miR-21 reporter, Pin1 inh, GLP-1R agonist)
Cc1ccc(NS(=O)(=O)c2ccc3c(c2)NC(=O)CO3)cc1Cl	GLP1R inv ag 10µM
Cc1cc2c(s1)c1cnn(Cc3ccc(SC(F)(F)F)cc3)c(=O)c1n2C	none (no result: PTHR1 agonist, miR-21 reporter, GLP1R cytotox, GLP-1R agonist, GLP1R inv ag)
COc1cccc(CNC(=O)c2oc3c(c2C)-c2nn(Cc4cccc(Cl)c4)cc2CC3)c1	GLP1R inv ag 11µM (no result: GLP-1R agonist)
CCOC(=O)c1ccc(NC(=S)N(CCCN2CCCCC2)Cc2ccco2)cc1	GLP1R cytotox inconclusive, GLP-1R agonist inconclusive, GLP1R inv ag 11µM
CCOC(=O)c1ccc(NC(=S)N(CCCN(CC)CC)Cc2ccco2)cc1	GLP1R inv ag inconclusive
CCOC(=O)C1C(=O)C=C(c2ccc(C)cc2)CC1c1ccc([N+](=O)[O-])cc1 (stereo not given)	GLP1R inv ag 10µM
CCOc1ccccc1NC(=O)c1cc2c(=O)[nH]c3ccccc3c2s1	none (no result: GLP-1R agonist)
CCN(c1ccccc1)S(=O)(=O)c1ccc(C(=O)Nc2cccc(NC(C)=O)c2)cc1	GLP1R inv ag inconclusive (no result: miR-21 reporter)
CCN(c1ccccc1)S(=O)(=O)c1cc(C(=O)Nc2ccc(F)c(F)c2)ccc1F	miR-21 reporter inconclusive, GLP1R cytotox inconclusive, GLP1R inv ag 1.4µM
Cc1ccc(S(=O)(=O)N2CCCC(C(=O)NCc3ccc4c(c3)OCO4)C2)cc1 (stereo not given)	GLP1R inv ag inconclusive
Cc1ccc(S(=O)(=O)N2CCCC(C(=O)NCCc3ccc4c(c3)OCO4)C2)cc1 (stereo not given)	GLP1R inv ag 13µM
CC1CC(C)CN(S(=O)(=O)c2ccc(C(=O)NCc3ccc4c(c3)OCO4)cc2)C1 (stereo not given)	Pin1 inh inconclusive, GLP1R inv ag 10µM
CN(C)S(=O)(=O)N1CCC(Oc2cccc(C(=O)NCCC3=CCCCC3)c2)CC1	GLP1R inv ag 10µM
COc1ccc(C(CNC(=O)c2ccc(C)c(S(=O)(=O)N3CCCCC3)c2)N(C)C)cc1OC (stereo not given)	none
CN(C)C(CNC(=O)c1ccc(Cl)c(S(=O)(=O)N2CCCCCC2)c1)c1ccccc1 (stereo not given)	GLP1R inv ag 7.9µM (no result: miR-21 reporter)
CN(C)S(=O)(=O)N1CCC(Oc2cccc(C(=O)NC3CCCCC3)c2)CC1	none
O=C(NCCC1=CCCCC1)c1ccc(Cl)c(S(=O)(=O)N2CCCCC2)c1	GLP1R inv ag 3.5µM
O=C(NCCN1CCOCC1)c1ccc(Cl)c(S(=O)(=O)N2CCCCC2)c1	none
O=C(NCCC1=CCCCC1)c1ccc(Cl)c(S(=O)(=O)N2CCOCC2)c1	none
CN(C)CCCNC(=O)c1ccc(Cl)c(S(=O)(=O)N2CCCCCC2)c1	GLP1R inv ag 10µM (no result: miR-21 reporter)
O=S(=O)(NC[C@@H]1CCC[C@H](CNS(=O)(=O)c2c(F)cccc2F)C1)c1ccc2c(c1)OCCO2	none (no result: PTHR1 agonist, miR-21 reporter, GLP1R cytotox, GLP-1R agonist, GLP1R inv ag)
CC(=O)Nc1sc2c(c1-c1nc3ccccc3s1)CNCC2	none (no result: PTHR1 agonist, miR-21 reporter, GLP1R cytotox, GLP-1R agonist, GLP1R inv ag)
O=C(NCc1ccncc1)c1ccc(Cl)c(S(=O)(=O)N2CCCCC2)c1	none
COc1ccc(CNC(=O)c2ccc(Cl)c(S(=O)(=O)N3CCCCCC3)c2)cc1	GLP1R inv ag 10µM (no result: miR-21 reporter, Pin1 inh)
O=C(Cn1c(=O)oc2cc(S(=O)(=O)N3CCCCC3)ccc21)NCc1ccc(Cl)cc1	GLP1R inv ag 13µM (no result: GLP-1R agonist)
CCN(CC)CCNC(=O)c1ccc(Cl)c(S(=O)(=O)N2CCCCCC2)c1	GLP1R inv ag 2.5µM
COc1ccc(S(=O)(=O)N2CCCCCC2)cc1C(=O)NCc1ccc(C)cc1	GLP1R inv ag 10µM (no result: miR-21 reporter)
O=C(O)Cc1nnc(-c2cc3ccccc3[nH]2)s1	none (no result: PTHR1 agonist, miR-21 reporter, GLP1R cytotox, GLP-1R agonist, GLP1R inv ag)
Cc1ccccc1C(NC(=O)C1CCN(Cc2ccc(Oc3ccccc3)cc2)CC1)c1ccsc1 (stereo not given)	GLP1R inv ag inconclusive (no result: miR-21 reporter, Pin1 inh)
O=C(NC(c1ccc(Cl)cc1)c1ccsc1)C1CCN(Cc2ccc(Oc3ccccc3)cc2)CC1 (stereo not given)	GLP1R inv ag 10µM (no result: miR-21 reporter, Pin1 inh)
CC(=O)Oc1c2occc2cc2ccc(=O)oc12	Pin1 inh inconclusive
COc1c2occc2c(OC(C)=O)c2c(=O)cc(C)oc12	GLP1R inv ag 10µM
Cc1cc(C)cc(N2CCn3c2nc2c3c(=O)n(Cc3c(F)cccc3Cl)c(=O)n2C)c1	none (no result: GLP-1R agonist)
C(/C=C/c1ccccc1)=N/N1CCN(c2ccccc2)CC1	none
C(=C\c1ccccc1)/C=N/N1CCN(c2ccccn2)CC1	GLP1R inv ag 3.5µM
O=C(O)c1ccccc1NC(c1ccccc1)c1ccc(Cl)cc1 (stereo not given)	GLP1R inv ag 11µM
O=C(CSc1ccccc1C(=O)O)c1ccc(Cl)cc1	none
COc1ccc(C2Nc3ccccc3C(=O)N2Cc2ccccc2)cc1COc1cccc(C)c1 (stereo not given)	none (no result: PTHR1 agonist, miR-21 reporter, GLP1R cytotox, GLP-1R agonist, GLP1R inv ag)
O=C(NCc1ccccc1)[C@]1(C(F)(F)F)C[C@H](CCC2CCCCC2)CCCO1	none (no result: PTHR1 agonist, miR-21 reporter, GLP1R cytotox, GLP-1R agonist, GLP1R inv ag)
Cc1ccc(C2CC2/C(=N/O)c2ccc(F)cc2)cc1 (stereo not given)	GLP1R inv ag 10µM
CNCCCC1Sc2ccccc2Oc2ccccc21 (stereo not given)	GLP1R cytotox inconclusive, GLP1R inv ag 5µM
COc1ccc(C2Nc3ccc(Cl)cc3C(=O)N2Cc2ccccc2)cc1COc1ccc(NC(C)=O)cc1 (stereo not given)	none (no result: PTHR1 agonist, miR-21 reporter, GLP1R cytotox, GLP-1R agonist, GLP1R inv ag)
COc1ccccc1-c1sc2ccccc2c1-c1ccc2c(c1)OCO2	GLP1R inv ag 10µM
COc1ccccc1-c1sc2cc3c(cc2c1-c1ccc(OCCN2CCCCC2)cc1)OCO3	GLP1R cytotox inconclusive, Pin1 inh inconclusive, GLP1R inv ag 13µM (no result: miR-21 reporter)
CC1=C(C(=O)Nc2ccc(C)cc2C)C(CC(C)C)n2nc(SCc3ccccc3C)nc2N1 (stereo not given)	none
CCc1c(C)sc2c1CCN(C(=O)Nc1cc(OC)c(OC)c(OC)c1)C2c1ccccc1 (stereo not given)	GLP1R inv ag 10µM (no result: GLP-1R agonist)
Cc1ccccc1NC(=O)N1CCc2c(sc3c2CCCC3)C1c1ccccc1 (stereo not given)	GLP1R inv ag 10µM (no result: GLP-1R agonist)
O=C(CCCn1c(=O)c2cccn2c2ccccc21)Nc1cccc(Cl)c1	Pin1 inh inconclusive (no result: GLP-1R agonist)
